From BindingDB's records for doi:10.1016/0024-3205(85)90028-1 (Universit&Eacute, 1985)

Protein sequences, listed by entry. Tags and fused reporters are not part of them.
UniProt P61169, whole entry: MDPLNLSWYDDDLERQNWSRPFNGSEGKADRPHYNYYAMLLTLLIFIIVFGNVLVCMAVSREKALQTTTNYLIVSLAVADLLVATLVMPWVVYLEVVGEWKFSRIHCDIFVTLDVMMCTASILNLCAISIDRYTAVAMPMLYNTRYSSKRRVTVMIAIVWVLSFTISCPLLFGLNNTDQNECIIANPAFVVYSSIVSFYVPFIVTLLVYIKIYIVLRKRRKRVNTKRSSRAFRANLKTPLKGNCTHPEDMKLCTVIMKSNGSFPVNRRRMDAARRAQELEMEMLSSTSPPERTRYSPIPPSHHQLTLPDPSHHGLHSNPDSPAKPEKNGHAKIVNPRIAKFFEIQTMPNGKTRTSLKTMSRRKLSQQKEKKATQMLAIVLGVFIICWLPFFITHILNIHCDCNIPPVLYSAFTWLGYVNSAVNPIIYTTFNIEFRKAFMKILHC

Biological target: D(2) dopamine receptor (Rattus norvegicus, UniProt P61169)

Q: NCCc1c[nH]c2ccc(O)cc12 [[3H]-5-HT] was tested. Which Ki did it give?
A: The Ki was greater than 10 µM.
